Experimental data: PubChem BioAssay AID1040 (The Scripps Research Institute Molecular Screening Center, 2008)
Only a part is listed here, and it is no random draw. Active and inactive are the calls of the source.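 How the source made its calls: active means inhibition above the campaign mean inhibition of all tested compounds plus 3 SD (cut at about 20% in these data); inactive means the rest.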

By UniProt entry, the sequences of proteins in these tests, tags left out.
UniProt P25929, whole entry: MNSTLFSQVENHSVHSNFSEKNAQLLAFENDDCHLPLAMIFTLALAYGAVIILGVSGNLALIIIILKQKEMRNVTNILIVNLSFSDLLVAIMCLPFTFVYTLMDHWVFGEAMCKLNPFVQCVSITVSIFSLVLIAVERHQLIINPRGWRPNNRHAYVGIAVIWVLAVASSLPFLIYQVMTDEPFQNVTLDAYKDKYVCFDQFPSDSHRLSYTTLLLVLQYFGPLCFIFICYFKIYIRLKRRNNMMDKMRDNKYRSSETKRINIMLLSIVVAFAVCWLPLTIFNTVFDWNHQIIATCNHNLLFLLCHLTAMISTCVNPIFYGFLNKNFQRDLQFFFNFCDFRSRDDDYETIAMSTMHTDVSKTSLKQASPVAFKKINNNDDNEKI

These compounds were tested against Neuropeptide Y receptor type 1 (Homo sapiens) (UniProt P25929) (assay: NPY-Y1 receptor antagonists, primary screen, cell-based (AID 1040;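 further: 0% = DMSO wells given NPY plus isoproterenol and 100% = isoproterenol alone without NPY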)). Settings: HEK293-CNG Y1 cells, membrane potential fluorescence; at 3.6 µM; stronger effect = higher value; NPY at EC95, then isoproterenol.

Which inhibition does the source give for `O=C(OCCN1CCN(CCOCc2ccccc2)CC1)C(O)(c1ccccc1)c1ccccc1` here?
Its inhibition is inactive: 3.74%.

Which inhibition does the source give for `CC(C)c1ccc(OP(C)(=O)Nc2ccc(SC(F)(F)F)cc2)cc1` (stereo not given) here?
Its inhibition is inactive: -0.5%.

Which inhibition does the source give for `CP(=O)(Nc1ccccc1F)Oc1ccccc1` (stereo not given) here?
Its inhibition is inactive: -4.3%.

Which inhibition does the source give for `CCN(CC)CCCOC(=O)C(O)(c1ccccc1)C1CCCCC1` (stereo not given) here?
Its inhibition is inactive: 2.62%.

How did the inhibition turn out when `CP(=O)(Nc1ccccc1)Oc1ccc(F)cc1` (stereo not given) was run?
Its inhibition is inactive: 7.2%.

How did the inhibition turn out when `COc1ccc(OP(C)(=O)Nc2ccc(SC(F)(F)F)cc2)cc1` (stereo not given) was run?
Its inhibition is inactive: 1.29%.

How did the inhibition turn out when `CCOC(=O)c1ccc(NP(C)(=O)Oc2ccc(F)cc2)cc1` (stereo not given) was run?
The inhibition was inactive: 4.33%.

How did the inhibition turn out when `O=[N+]([O-])c1cc([N+](=O)[O-])c(NCC2CCS(=O)(=O)C2)c([N+](=O)[O-])c1` (stereo not given) was run?
Its inhibition is inactive: 3.62%.

How did the inhibition turn out when `COc1ccc(OP(C)(=O)Nc2cccc(Br)c2)cc1` (stereo not given) was run?
Its inhibition is inactive: 9.32%.

For `COc1ccc(NP(C)(=O)Oc2ccccc2OC)cc1` (stereo not given), which inhibition is on record?
The inhibition was inactive: 1.53%.

How did the inhibition turn out when `CN(C)CCOC(=O)C(O)(c1ccccc1)C1CCCCC1` (stereo not given) was run?
The inhibition was inactive: 0.51%.

`CP(=O)(Nc1ccc2c(c1)OCCO2)Oc1ccccc1` (stereo not given) was tested. Which inhibition did it give?
The inhibition was inactive: -5.67%.

With `Cc1ccccc1NP(C)(=O)Nc1ccccc1C` as the compound, how does the inhibition read?
The inhibition was inactive: -5.37%.

Which inhibition does the source give for `CCOP(C)(=S)SCC(=O)NC(C)(CC)C(=O)O` (stereo not given) here?
Its inhibition is inactive: 8.26%.

How did the inhibition turn out when `CP(=O)(Nc1ccc(Cl)cc1)Oc1ccc(F)cc1` (stereo not given) was run?
Its inhibition is inactive: 8.57%.

How did the inhibition turn out when `COc1ccccc1OP(C)(=O)Nc1ccccc1Br` (stereo not given) was run?
Its inhibition is inactive: -3.67%.

`CC(C)(C)c1ccc(OP(C)(=O)O)cc1` was tested. Which inhibition did it give?
Its inhibition is inactive: 1.93%.

`CN(C)C(=O)c1c([N+](=O)[O-])cc([N+](=O)[O-])cc1[N+](=O)[O-]` was tested. Which inhibition did it give?
Its inhibition is inactive: -1.51%.

Which inhibition does the source give for `CCN(CC)CC(O)COC(=O)C(O)(c1ccccc1)C1CCCCC1` (stereo not given) here?
The inhibition was inactive: 10.9%.

`COc1ccc(OP(C)(=O)Nc2ccc(Br)cc2)cc1` (stereo not given) was tested. Which inhibition did it give?
The inhibition was inactive: -4.29%.

Which inhibition does the source give for `CP(=O)(Oc1ccccc1)N1CCOC1=O` (stereo not given) here?
Its inhibition is inactive: 2.32%.

With `CCc1ccc(OP(C)(=O)Nc2cccnc2)cc1` (stereo not given) as the compound, how does the inhibition read?
Its inhibition is inactive: -2.34%.

Which inhibition does the source give for `COc1ccccc1OP(C)(=O)Nc1c(C)n(C)n(-c2ccccc2)c1=O` (stereo not given) here?
Its inhibition is inactive: -3.69%.

With `CP(=O)(OC12CC3CC(CC(C3)C1)C2)OC12CC3CC(CC(C3)C1)C2` as the compound, how does the inhibition read?
The inhibition was inactive: 10.7%.

For `CCOC(=O)c1ccc(NP(C)(=O)Oc2ccc(Cl)cc2)cc1` (stereo not given), which inhibition is on record?
The inhibition was inactive: -6.49%.

With `Cc1nc2ccc3ccccc3c2o1.O=[N+]([O-])c1cc([N+](=O)[O-])c(O)c([N+](=O)[O-])c1` as the compound, how does the inhibition read?
The inhibition was inactive: 15%.

With `CP(=O)(Nc1ccc(Cl)cc1Cl)Oc1ccccc1` (stereo not given) as the compound, how does the inhibition read?
Its inhibition is inactive: -2.61%.

For `CP(=O)(OCCOc1ccccc1)OCCOc1ccccc1`, which inhibition is on record?
The inhibition was inactive: 17.5%.

How did the inhibition turn out when `Cc1cc(C)cc(OP(C)(=O)Nc2cccc(C(F)(F)F)c2)c1` (stereo not given) was run?
Its inhibition is inactive: -3.14%.

`COc1ccc(OP(C)(=O)Nc2ccccc2Br)cc1` (stereo not given) was tested. Which inhibition did it give?
The inhibition was inactive: -0.43%.

`COc1ccccc1OP(C)(=O)Nc1ccc(C)c(C)c1` (stereo not given) was tested. Which inhibition did it give?
Its inhibition is inactive: 3.67%.

With `Cc1c(NP(C)(=O)Oc2ccc(C(C)C)cc2)c(=O)n(-c2ccccc2)n1C` (stereo not given) as the compound, how does the inhibition read?
The inhibition was inactive: -3.73%.

For `O=[N+]([O-])c1cc([N+](=O)[O-])c(Nc2ccccn2)c([N+](=O)[O-])c1`, which inhibition is on record?
Its inhibition is inactive: -0.68%.

With `CCc1ccc(OP(C)(=O)O)cc1` as the compound, how does the inhibition read?
The inhibition was inactive: 17.9%.

`CP(=O)(Nc1ccccn1)Oc1ccccc1` (stereo not given) was tested. Which inhibition did it give?
Its inhibition is inactive: -1.66%.

For `COc1ccccc1OP(C)(=O)Nc1ccc(C)cc1C` (stereo not given), which inhibition is on record?
The inhibition was inactive: 2.63%.

`CN(C)CCOC(=O)C(O)(c1ccccc1)C1CCCC1` (stereo not given) was tested. Which inhibition did it give?
Its inhibition is inactive: 4.1%.

With `COc1ccc(OP(C)(=O)Nc2ccccn2)cc1` (stereo not given) as the compound, how does the inhibition read?
Its inhibition is inactive: -2.63%.

How did the inhibition turn out when `CCN(CC)CCCOC(=O)C(O)(c1ccccc1)c1ccccc1` was run?
Its inhibition is inactive: 3.89%.

With `CCOC(=O)c1ccc(NP(C)(=O)Oc2ccccc2)cc1` (stereo not given) as the compound, how does the inhibition read?
The inhibition was inactive: 2.83%.

How did the inhibition turn out when `COc1ccccc1OP(C)(=O)Nc1ccc(C)cc1` (stereo not given) was run?
The inhibition was inactive: 0.52%.

With `Cc1ccc(NP(C)(=O)Oc2ccccc2)c(C)c1` (stereo not given) as the compound, how does the inhibition read?
The inhibition was inactive: -1.09%.

For `COc1ccccc1OP(C)(=O)Nc1cc(Cl)ccc1C` (stereo not given), which inhibition is on record?
The inhibition was inactive: -5.63%.

How did the inhibition turn out when `COc1ccc(OP(C)(=O)Nc2cccc(F)c2)cc1` (stereo not given) was run?
The inhibition was inactive: -0.63%.

Which inhibition does the source give for `Cc1cc(C)cc(OP(C)(N)=O)c1` (stereo not given) here?
The inhibition was inactive: 3.37%.

With `CC(C)(C)c1ccc(OP(C)(=O)Nc2ccc(SC(F)(F)F)cc2)cc1` (stereo not given) as the compound, how does the inhibition read?
Its inhibition is inactive: 2.92%.

Which inhibition does the source give for `Cc1cccc(C)c1OP(C)(N)=O` (stereo not given) here?
The inhibition was inactive: -2.4%.

For `O=[N+]([O-])c1ccc2c(c1)C=Nc1ccccc1O2`, which inhibition is on record?
The inhibition was inactive: 4.5%.

Which inhibition does the source give for `CP(=S)(Nn1cnnc1)Oc1ccccc1` (stereo not given) here?
Its inhibition is inactive: 1.27%.

Which inhibition does the source give for `COc1ccccc1OP(C)(=O)Nc1ccccc1` (stereo not given) here?
Its inhibition is inactive: -3.3%.

`CP(=O)(Nc1ccccc1Br)Oc1ccccc1` (stereo not given) was tested. Which inhibition did it give?
Its inhibition is inactive: -1%.

`CCOP(C)(=S)SCC(=O)NC(C)C(=O)O` (stereo not given) was tested. Which inhibition did it give?
The inhibition was inactive: -0.76%.

For `CCOC(=O)c1ccc(NP(C)(=O)Oc2ccc(OC)cc2)cc1` (stereo not given), which inhibition is on record?
Its inhibition is inactive: -4.78%.

With `CP(=O)(Nc1ccccn1)Oc1ccc(Cl)cc1` (stereo not given) as the compound, how does the inhibition read?
The inhibition was inactive: -1.35%.

For `Cc1cccc(C)c1OP(C)(=O)Nc1ccc(SC(F)(F)F)cc1` (stereo not given), which inhibition is on record?
The inhibition was inactive: -8.28%.

How did the inhibition turn out when `CP(=O)(Oc1ccccc1)OC(c1ccccc1)C(F)(F)F` (stereo not given) was run?
The inhibition was inactive: 3.82%.

For `CP(=O)(NC(=O)Nc1ccccc1)Oc1ccccc1` (stereo not given), which inhibition is on record?
The inhibition was inactive: -2.93%.

How did the inhibition turn out when `Cc1cc(C)cc(OP(C)(=O)Nc2ccc(SC(F)(F)F)cc2)c1` (stereo not given) was run?
The inhibition was inactive: -7.22%.

For `Cc1nc2ccc3ccccc3c2s1.O=[N+]([O-])c1cc([N+](=O)[O-])c(O)c([N+](=O)[O-])c1`, which inhibition is on record?
The inhibition was inactive: 9.41%.

`O=[N+]([O-])c1cc([N+](=O)[O-])c(-n2nnc3ccccc32)c([N+](=O)[O-])c1` was tested. Which inhibition did it give?
The inhibition was inactive: 5.68%.

`COc1ccccc1OP(C)(=O)Nc1c(C)cccc1C` (stereo not given) was tested. Which inhibition did it give?
The inhibition was inactive: 4.89%.

With `CN1CCCCC1COC(=O)C1(O)c2ccccc2CCc2ccccc21` (stereo not given) as the compound, how does the inhibition read?
Its inhibition is inactive: 2.82%.

For `CCCOc1ccc(NP(C)(=O)Oc2ccc(Cl)cc2)cc1` (stereo not given), which inhibition is on record?
Its inhibition is inactive: -2.08%.

Which inhibition does the source give for `CP(=O)(Nc1ccc(SC(F)(F)F)cc1)Oc1ccccc1` (stereo not given) here?
Its inhibition is inactive: -0.28%.

With `CC1=NCCc2c1[nH]c1ccccc21.O=[N+]([O-])c1cc([N+](=O)[O-])c(O)c([N+](=O)[O-])c1` as the compound, how does the inhibition read?
Its inhibition is inactive: 9.89%.

How did the inhibition turn out when `Cc1cc(C)cc(OP(C)(=O)Nc2ccccn2)c1` (stereo not given) was run?
The inhibition was inactive: 4.4%.

For `CP(=O)(Nc1cccc(Br)c1)Oc1ccccc1` (stereo not given), which inhibition is on record?
The inhibition was inactive: -1.79%.

For `Cc1ccc(C)c(NP(C)(=O)Oc2ccccc2)c1` (stereo not given), which inhibition is on record?
The inhibition was inactive: 3.79%.

Which inhibition does the source give for `Cc1cc(C)cc(OP(C)(=O)Nc2ccc(C)cc2C)c1` (stereo not given) here?
The inhibition was inactive: 4.21%.

With `CCOC(=O)c1ccc(NP(C)(=O)Oc2cc(C)cc(C)c2)cc1` (stereo not given) as the compound, how does the inhibition read?
Its inhibition is inactive: -1.55%.
